Key:
BCL-2 = BCL-2 (Homo sapiens, UniProt P10415); test: Fluorescence polarization binding assay; set-up: In each case, the C-terminus transmembrane domain was truncated to maintain solubility in aqueous solution; GST; made in house; host or cells: bacteria
leukemic mitochondria = test: Cytochrome c release from BCL-2 dependent leukemia mitochondria; type: biochemical, mouse
Procedure: Mitochondria were purified from liver and FL5.12cells as previously described (Letai et al., 2002). Mitochondria were purified from leukemia cells and 2B4 cells as previously described for FL5.12 cells. Mitochondria were incubated with treatments for 45 (mouse liver mitochondria) or 35 minutes (FL5.12, 2B4, and leukemic mitochondria). Release of cytochrome c was determined by a comparison of cytochrome c in the pellet and supernatant following treatment, quantitated by ELISA (R&D systems). When results of multiple experiments were averaged, results from solvent-only (DMSO) treatments values were subtracted from each, so that 0 release reflects that observed in solvent-only treatments.
Leukemia prone mice were generated as previously described (Letai, 2004). Mouse experimental protocols conform to the relevant regulatory standards and were approved by the Dana-Farber Cancer Institute Animal Care and Use Committee.
Previous results have described a mouse acute lymphocytic leukemia model in which c-myc is constitutively expressed and human BCL-2 is repressibly expressed. […]
Mitochondria were isolated from leukemia cells and exposed to sensitizer BH3 peptides. Subsequently, cytochrome c release was measured. […]

Chains of the proteins cited; added tags and fusions are not shown. Residues count along the entry.
UniProt P10415, 1-218 limits assumed: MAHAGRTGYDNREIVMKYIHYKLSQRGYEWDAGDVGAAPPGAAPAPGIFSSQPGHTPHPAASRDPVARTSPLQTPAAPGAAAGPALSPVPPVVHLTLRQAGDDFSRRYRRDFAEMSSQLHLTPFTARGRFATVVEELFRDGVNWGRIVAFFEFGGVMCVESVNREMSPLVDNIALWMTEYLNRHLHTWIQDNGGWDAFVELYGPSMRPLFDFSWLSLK

Q: Which results are given for `CC[C@H](C)[C@H](NC(=O)[C@H](CS)NC(=O)[C@H](C)NC(=O)[C@H](CC(C)C)NC(=O)[C@H](CCCNC(=N)N)NC(=O)[C@H](CC(C)C)NC(=O)[C@H](C)NC(=O)[C@H](CC(C)C)NC(=O)[C@H](C)NC(=O)[C@H](CC(=O)O)NC(=O)[C@H](CO)NC(=O)CNC(=O)[C@H](CCC(=O)O)NC(=O)[C@H](CCSC)NC(=O)CCCCCNC(=S)Nc1ccc2c(c1)C(=O)OC21c2ccc(O)cc2Oc2cc(O)ccc21)C(=O)NCC(=O)N[C@@H](CC(=O)O)C(=O)N[C@@H](CCC(=O)O)C(=O)N[C@@H](CCSC)C(=O)N[C@@H](CC(=O)O)C(=O)N[C@H](C(=O)O)C(C)C` [BIK]?
A: fold lower affinity for BCL-2 than BAD, PUMA or BMF BH3 (BCL-2): approximately 10 fold; concentration needed for cytochrome c release relative to BAD BH3 (leukemic mitochondria): requires a ten-fold higher concentration
